# Laboratory results: patent publication EP4831176A1, “BICYCLIC FUSED HETEROAROMATIC RING DERIVATIVE, AND PHARMACEUTICAL COMPOSITION AND USE THEREOF” (dated 2026)
# The chains behind the UniProt entries cited, without tags or fusion partners.
# UniProt O75530, whole entry: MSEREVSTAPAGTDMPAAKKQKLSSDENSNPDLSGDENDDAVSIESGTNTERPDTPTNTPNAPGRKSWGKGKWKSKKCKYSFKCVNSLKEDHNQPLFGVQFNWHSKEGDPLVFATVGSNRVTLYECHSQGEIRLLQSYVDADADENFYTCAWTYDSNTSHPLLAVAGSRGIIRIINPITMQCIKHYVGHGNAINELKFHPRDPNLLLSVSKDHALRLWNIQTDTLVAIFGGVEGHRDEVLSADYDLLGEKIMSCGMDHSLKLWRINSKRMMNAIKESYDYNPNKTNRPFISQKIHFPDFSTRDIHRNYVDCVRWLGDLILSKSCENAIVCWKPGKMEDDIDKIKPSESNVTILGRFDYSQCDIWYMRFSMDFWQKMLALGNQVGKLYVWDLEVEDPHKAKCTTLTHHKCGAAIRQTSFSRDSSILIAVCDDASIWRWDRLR
# How the values were obtained:
# Pfeiffer cells = assay: Proliferation inhibition of Pfeiffer tumor cells, Cell Titer-Glo; conditions: read-out: CTG IC50, 144 hours incubation
# Excerpt: In this experiment, Cell Titer-Glo reagent was used to quantitatively analyze the proliferation activity of Pfeiffer cells to detect the inhibitory ability of the compounds on tumor cell proliferation. The specific steps were as follows: • 1. Pfeiffer cells were purchased from Nanjing Cobioer (purchased from ATCC, Catalog No. #CRL2632), subcultured and maintained in logarithmic growth state using RPMI-1640 complete medium (containing 10% v/v fetal bovine serum) according to the supplier's recommended conditions. […] Before cell seeding, cells were collected in a centrifuge tube, centrifuged at 250 rcf for 3 minutes, and the culture medium was discarded. The cells were resuspended in fresh complete medium, and 20 µL of the cell suspension was taken to calculate the cell concentration using a Countstar cell counter. After adjusting the density, cells were seeded into a 384-well plate at 2,000 cells/45 µL and pre-incubated in a 37°C, 5% CO2 incubator for 4 hours. • 3. The negative and positive control groups were treated with 5 µL of control solution (non-complete medium containing 1% v/v DMSO). Compound gradient dilutions were prepared using non-complete medium, and 5 µL of the dilutions were added to the corresponding culture wells. The final concentration of DMSO in the test was 0.1% v/v. Subsequently, the plate was incubated in a 37°C, 5% CO2 incubator for 144 hours. • 4. 40 µL of Cell Titer-Glo reagent was added directly to the cell culture, and the plate was incubated at room temperature in the dark for 30 minutes. The luminescence value was then read on a plate reader, and the results were used to analyze the cell proliferation ratio and compound activity. • 5. The signal value of the negative control group was set as Bottom, and the signal value of the positive control group was set as Top. The compound concentration value (logarithm) was the X-axis, and the luminescence reading at the corresponding concentration was the Y-axis, with HillSlope as the slope factor. A four-parameter logistic model (4PL logistic model) was used for fitting, and the calculation method was as follows:Y = Bottom + (Top - Bottom) / (1 + 10^((Log IC50 - X) × HillSlope))
# After fitting, the IC50 value of the compound was calculated, and the proliferation inhibitory activity of the compound was compared based on the IC50 value.
# EED protein = EED protein (Homo sapiens, UniProt O75530); assay: EED protein degradation in Karpas-422 cells, In-cell western (ICW); conditions: 18 hours incubation
# Excerpt: In this experiment, In-cell western (ICW) method was used to quantitatively analyze the EED protein expression level in Karpas-422 cells to detect the degradation activity of the compounds on the target protein. The specific steps were as follows: • 1. Karpas-422 cells were purchased from Nanjing Cobioer (Catalog No. CBP60629), subcultured and maintained in logarithmic growth state using RPMI-1640 complete medium (containing 10% v/v fetal bovine serum) according to the supplier's recommended conditions. […] One day before cell seeding, a 384-well plate was coated with 30 µL of coating buffer (phosphate buffered saline containing 30 µg/mL poly-D-lysine) at room temperature for 2 hours. The coating solution was then discarded, and the plate was washed once with 90 µL of phosphate buffered saline, which was then discarded. The plate was allowed to air dry naturally in a clean bench, wrapped around the edges with Parafilm to prevent moisture, and stored in a 4°C refrigerator until use. • 3. Before cell seeding, cells were collected in a centrifuge tube, centrifuged at 250 rcf for 3 minutes, and the culture medium was discarded. The cells were resuspended in fresh complete medium, and 20 µL of the cell suspension was taken to calculate the cell concentration using a Countstar cell counter. After adjusting the density, cells were seeded into the prepared coated plate at 15,000 cells/45 µL and pre-incubated in a 37°C, 5% CO2 incubator for 4 hours. • 4. The negative and positive control groups were treated with 5 µL of control solution (serum-free medium containing 1% v/v DMSO). Compound gradient dilutions were prepared using the control solution, and 5 µL of the dilutions were added to the corresponding culture wells. The final concentration of DMSO in the test was 0.1% v/v. Subsequently, the plate was incubated in a 37°C, 5% CO2 incubator for 18 hours. • 5. The culture plate was removed, and cells were fixed by directly adding 10 µL of fixative solution (phosphate buffered saline containing 3% v/v glutaraldehyde) to the cells and incubating at room temperature for 30 minutes. The liquid was discarded. Subsequently, cells were treated with 30 µL of permeabilization staining solution (phosphate buffered saline containing 0.1% v/v Triton X-100 and 20 µg/mL Hoechst 33342) at room temperature for 30 minutes. The permeabilization solution was discarded, and the fluorescence value (excitation at 360 nm, emission at 460 nm) was read on a microplate reader. • 6. 50 µL of repair solution (50 mM citric acid buffer) was added to all wells, and the plate was incubated at 70°C for 2 hours on a constant temperature incubation shaker. The microplate was then removed, equilibrated to room temperature, and the liquid was discarded. • 7. A sufficient amount of antibody dilution buffer (Tris Buffered Saline-Tween solution containing 1% w/v bovine serum albumin) was prepared and stored in a 4°C refrigerator until use. • 8. Primary antibody dilution (EED antibody diluted 1:1000 with antibody dilution buffer) was prepared. 30 µL of antibody dilution buffer without antibody was added to the negative control group. 30 µL of the primary antibody dilution was added to the cells in the other groups, and the plate was incubated overnight at 4°C. • 9. The primary antibody dilution was discarded. The plate was washed 3 times with 90 µL of Tris Buffered Saline-Tween solution, and the wash solution was discarded. Secondary antibody dilution (HRP-linked antibody diluted 1:500 with antibody dilution buffer) was prepared, and 30 µL was added to the cells. The plate was incubated at room temperature for 2 hours. • 10. The secondary antibody dilution was discarded. The plate was washed 3 times with 90 µL of Tris Buffered Saline-Tween solution, and the wash solution was discarded. 30 µL of TMB substrate solution was added, and the plate was incubated at room temperature in the dark for 15 minutes. Then, 30 µL of stop solution (2 M sulfuric acid) was added to terminate the reaction. […]
IC50 (Pfeiffer cells),Dmax (EED protein),Compound
0.27 nM,66%,Cn1nc(C2CCC(=O)NC2=O)c2ccc(N3CCC(CN4CCC(n5ncc(-c6cnc(NCc7c(F)ccc8c7CCO8)n7cnc(Cl)c67)n5)CC4)CC3)cc21 (stereo not shown)
8 nM,52%,Cn1nc(C2CCC(=O)NC2=O)c2ccc(N3CCC(CN4CCC(n5cc(-c6cnc(NCc7c(F)ccc8c7CCO8)n7nnnc67)cn5)CC4)CC3)cc21 (stereo not shown)
5 nM,37%,Cn1nc(C2CCC(=O)NC2=O)c2ncc(N3CCC(CN4CCC(n5cc(-c6cnc(NCc7c(F)ccc8c7CCO8)n7cnc(Cl)c67)cn5)CC4)CC3)cc21 (stereo not shown)
12 nM,65%,Cn1nc(C2CCC(=O)NC2=O)c2ccc(N3CCC(F)(CN4CCC(c5ccc(-c6cnc(NCc7c(F)ccc8c7CCO8)n7nnnc67)cc5)CC4)CC3)cc21 (stereo not shown)
22 nM,49%,O=C1CCC(Nc2ccc(N3CCC(CN4CCC(n5cc(-c6cnc(NCc7c(F)ccc8c7CCO8)n7cnc(Cl)c67)cn5)CC4)CC3)c(F)c2)C(=O)N1 (stereo not shown)
0.1 nM,67%,Cn1c(=O)n(C2CCC(=O)NC2=O)c2ccc(N3CCC(CN4CCC(n5cc(-c6cnc(NCc7c(F)ccc8c7CCO8)n7cnc(Cl)c67)cn5)CC4)CC3)cc21 (stereo not shown)
0.07 nM,56%,Cn1nc(C2CCC(=O)NC2=O)c2ccc(N3CC4(CC(CN5CCC(n6cc(-c7cnc(NCc8c(F)ccc9c8CCO9)n8cnc(Cl)c78)nn6)CC5)C4)C3)cc21 (stereo not shown)
,40%,O=C1CCC(N2C(=O)c3ccc(N4CCC5(CCN(c6ccc(-c7cnc(NCc8c(F)ccc9c8CCO9)n8cnc(Cl)c78)cc6)CC5)CC4)cc3C2=O)C(=O)N1 (stereo not shown)
0.17 nM,51%,Cn1nc(C2CCC(=O)NC2=O)c2ccc(N3CC4(CC(CN5CCC(n6cnc(-c7cnc(NCc8c(F)ccc9c8CCO9)n8cnc(Cl)c78)n6)CC5)C4)C3)cc21 (stereo not shown)
9 nM,56%,Cn1nc(C2CCC(=O)NC2=O)c2ccc(N3CCC(CN4CCC(c5ccc(-c6cnc(NCc7c(F)ccc8c7CCO8)n7cnc(I)c67)cc5)CC4)CC3)cc21 (stereo not shown)
1.4 nM,64%,Cn1nc(C2CCC(=O)NC2=O)c2ccc(N3CCC(CN4CCC(c5ccc(-c6cnc(NCc7c(F)ccc8c7CCO8)n7cncc67)cc5)CC4)CC3)cc21 (stereo not shown)
0.8 nM,54%,Cn1nc(C2CCC(=O)NC2=O)c2ccc(N3CCC(N4CCC(n5cc(-c6cnc(NCc7c(F)ccc8c7CCO8)n7cnc(Cl)c67)cn5)CC4)CC3)cc21 (stereo not shown)
0.1 nM,62%,Cn1c(=O)n(C2CCC(=O)NC2=O)c2ccc(N3CCC(CN4CCC(n5cc(-c6cnc(NCc7c(F)ccc8c7CCO8)n7cnc(Cl)c67)nn5)CC4)CC3)cc21 (stereo not shown)
1 nM,55%,Cn1nc(C2CCC(=O)NC2=O)c2ccc(N3CCC(CN4CCC(n5nnc(-c6cnc(NCc7c(F)ccc8c7CCO8)n7cnc(Cl)c67)n5)CC4)CC3)cc21 (stereo not shown)
,21%,Cn1c(=O)n(C2CCC(=O)NC2=O)c2ccc(N3CCC(Oc4ccc(-c5cnc(NCc6c(F)ccc7c6CCO7)n6cnc(Cl)c56)cc4)CC3)cc21 (stereo not shown)
0.06 nM,58%,Cn1nc(C2CCC(=O)NC2=O)c2ccc(N3CCC(CN4CCC(n5cc(-c6cnc(NCc7c(F)ccc8c7CCO8)n7cnnc67)nn5)CC4)CC3)cc21 (stereo not shown)

IC50 (Pfeiffer cells),Dmax (EED protein),Compound
4 nM,62%,Cn1nc(C2CCC(=O)NC2=O)c2ccc(N3CCC(CN4CCC(c5cnc(-c6cnc(NCc7c(F)ccc8c7CCO8)n7cnc(Cl)c67)nc5)CC4)CC3)cc21 (stereo not shown)
3 nM,66%,Cn1nc(C2CCC(=O)NC2=O)c2ccc(N3CCC(CN4CCC(c5ccc(-c6cnc(NCc7c(F)ccc8c7CCO8)c7nncn67)cc5)CC4)CC3)cc21 (stereo not shown)
,41%,Cn1nc(C2CCC(=O)NC2=O)c2ccc(N3CCC(CN4CCC(n5cc(-c6cnc(NCc7c(F)ccc8c7CCO8)n7cnc(F)c67)nn5)CC4)CC3)cc21 (stereo not shown)
30 nM,30%,O=C1CCC(Nc2ccc(N3CCN(C4CCN(Cc5ccc(-c6cnc(NCc7c(F)ccc8c7CCO8)n7cnnc67)cc5)CC4(F)F)CC3)c(F)c2)C(=O)N1 (stereo not shown)
7 nM,51%,Cn1nc(C2CCC(=O)NC2=O)c2ccc(N3CCC(F)(CN4CCC(n5cc(-c6cnc(NCc7c(F)ccc8c7CCO8)n7cnc(Cl)c67)cn5)CC4)CC3)cc21 (stereo not shown)
0.9 nM,63%,Cn1nc(C2CCC(=O)NC2=O)c2cc(F)c(N3CCC(CN4CCC(c5ccc(-c6cnc(NCc7c(F)ccc8c7CCO8)n7cnnc67)cc5)CC4)CC3)cc21 (stereo not shown)
2 nM,70%,Cn1c(=O)n(C2CCC(=O)NC2=O)c2ccc(N3CCC(CN4CCC(c5ccc(-c6cnc(NCc7c(F)ccc8c7CCO8)n7cnnc67)cc5)CC4)CC3)cc21 (stereo not shown)
,38%,Cn1nc(C2CCC(=O)NC2=O)c2ccc(N3CCC(CN4CCC(N5CCC(c6cnc(NCc7c(F)ccc8c7CCO8)n7cnc(Cl)c67)CC5)CC4)CC3)cc21 (stereo not shown)
< 0.03 nM,66%,Cn1nc(C2CCC(=O)NC2=O)c2ccc(N3CCC(CN4CCC(c5ccc(-c6cnc(NCc7c(F)ccc8c7CCO8)n7cnnc67)nc5)CC4)CC3)cc21 (stereo not shown)
2.2 nM,61%,Cn1nc(C2CCC(=O)NC2=O)c2ccc(N3CCC(CN4CCC(c5ccc(-c6cnc(NCc7c(F)ccc8c7CCO8)n7cnc(Br)c67)cc5)CC4)CC3)cc21 (stereo not shown)
0.12 nM,64%,Cn1nc(C2CCC(=O)NC2=O)c2ccc(N3CCC(CN4CCC(c5cc(-c6cnc(NCc7c(F)ccc8c7CCO8)n7cnc(Cl)c67)on5)CC4)CC3)cc21 (stereo not shown)
0.9 nM,67%,Cn1nc(C2CCC(=O)NC2=O)c2ccc(N3CCC(CN4CCC(c5ccc(-c6cnc(NCc7c(F)ccc8c7CCO8)n7cnnc67)cn5)CC4)CC3)cc21 (stereo not shown)
2.7 nM,57%,Cn1c(=O)n(C2CCC(=O)NC2=O)c2ccc(N3CCC(NC(=O)c4ccc(-c5cnc(NCc6c(F)ccc7c6CCO7)n6cnc(Cl)c56)cc4)C(F)(F)C3)cc21 (stereo not shown)
1.1 nM,68%,Cn1nc(C2CCC(=O)NC2=O)c2ccc(N3CCC(CN4CCC(c5ncc(-c6cnc(NCc7c(F)ccc8c7CCO8)n7nnnc67)cn5)CC4)CC3)cc21 (stereo not shown)
,25%,O=C1CCC(N2C(=O)c3ccc(N4CCC(c5ccc(-c6cnc(NCc7c(F)ccc8c7CCO8)n7cnc(Cl)c67)cc5)CC4)cc3C2=O)C(=O)N1 (stereo not shown)
,29%,Cn1nc(C2CCC(=O)NC2=O)c2ccc(N3CCC(CN4CCC(n5cnc(-c6cnc(NCc7c(F)ccc8c7CCO8)n7cnc(Cl)c67)c5)CC4)CC3)cc21 (stereo not shown)
